The source of these data is patent US8637550B2, “Heteroaryl diamide compounds useful as MMP-13 inhibitors” (Boehringer Ingelheim International GmbH, priority 2008, dated 2014).

The assay has as its target MMP-13 (Homo sapiens, UniProt P45452). Kind of assay: EnzoLyte 520 Generic MMP Assay Kit, 5-FAM/QXL520 FRET peptide substrate. The format is biochemical.

Consider “5-[5-(5-Methyl-3H-imidazol-4-ylmethoxy)-pyridin-2-yl]-furan-2-carboxylic acid ((S)-2-methyl-1-methylcarbamoyl-propyl)-amide”, for which the IC50 was determined as 29 nM.

The IC50 is the concentration that inhibits the measured activity by half.
